Data published in ChEMBL document CHEMBL5058646 (2022).

Chains of the proteins cited; added tags and fusions are not shown. Lines headed by an entry give the natural chain unless they say otherwise; changes in a name come on top.
UniProt O15264: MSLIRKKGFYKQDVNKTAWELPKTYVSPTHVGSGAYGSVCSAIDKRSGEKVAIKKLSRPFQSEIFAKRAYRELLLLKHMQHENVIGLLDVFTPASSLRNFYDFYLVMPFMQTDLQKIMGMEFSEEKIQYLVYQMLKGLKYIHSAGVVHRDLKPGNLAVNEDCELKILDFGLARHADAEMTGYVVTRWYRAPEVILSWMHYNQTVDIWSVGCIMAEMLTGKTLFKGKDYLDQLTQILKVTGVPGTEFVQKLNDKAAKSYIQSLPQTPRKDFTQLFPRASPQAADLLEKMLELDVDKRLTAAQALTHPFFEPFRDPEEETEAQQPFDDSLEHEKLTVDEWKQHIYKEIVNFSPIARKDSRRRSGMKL
UniProt O95365: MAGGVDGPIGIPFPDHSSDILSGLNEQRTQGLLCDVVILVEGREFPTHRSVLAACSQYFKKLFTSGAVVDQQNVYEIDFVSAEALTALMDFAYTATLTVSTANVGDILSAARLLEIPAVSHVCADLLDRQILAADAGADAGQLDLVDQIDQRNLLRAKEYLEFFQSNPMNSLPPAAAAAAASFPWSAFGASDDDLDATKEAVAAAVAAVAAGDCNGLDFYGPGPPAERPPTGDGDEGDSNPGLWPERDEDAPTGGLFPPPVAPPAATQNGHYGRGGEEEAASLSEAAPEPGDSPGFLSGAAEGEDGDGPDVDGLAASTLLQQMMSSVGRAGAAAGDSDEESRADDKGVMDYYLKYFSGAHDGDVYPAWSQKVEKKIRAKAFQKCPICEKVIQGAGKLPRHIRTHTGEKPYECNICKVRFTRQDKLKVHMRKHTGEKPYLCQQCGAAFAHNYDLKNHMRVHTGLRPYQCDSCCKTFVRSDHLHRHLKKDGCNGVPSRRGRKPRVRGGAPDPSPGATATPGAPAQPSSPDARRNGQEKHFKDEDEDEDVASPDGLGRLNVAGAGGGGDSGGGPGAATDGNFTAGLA

Columns and labels:
[1] = molecular target: Mitogen-activated protein kinase 13 (Homo sapiens) (UniProt O15264); details: Compound concentration 20.0 uM
[2] = molecular target: T1, Zinc finger and BTB domain-containing protein 9 (Homo sapiens) (UniProt Q96C00); details: SUD4
T1 sequence (whole entry): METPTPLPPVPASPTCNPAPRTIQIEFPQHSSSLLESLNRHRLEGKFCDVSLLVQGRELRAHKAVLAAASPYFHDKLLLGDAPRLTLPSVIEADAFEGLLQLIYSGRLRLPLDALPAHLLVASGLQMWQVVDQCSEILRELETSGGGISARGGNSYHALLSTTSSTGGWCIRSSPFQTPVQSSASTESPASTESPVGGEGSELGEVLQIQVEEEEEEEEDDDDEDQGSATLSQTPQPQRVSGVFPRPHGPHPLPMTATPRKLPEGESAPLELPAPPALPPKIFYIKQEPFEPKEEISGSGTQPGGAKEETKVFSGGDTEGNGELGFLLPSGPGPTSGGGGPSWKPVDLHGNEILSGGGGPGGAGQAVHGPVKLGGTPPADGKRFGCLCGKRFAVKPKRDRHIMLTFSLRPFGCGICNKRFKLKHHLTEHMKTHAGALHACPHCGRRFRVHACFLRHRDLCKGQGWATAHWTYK

[3] = molecular target: T2, Transcriptional regulator Kaiso (Homo sapiens) (UniProt Q86T24); details: SUD4
T2 sequence (whole entry): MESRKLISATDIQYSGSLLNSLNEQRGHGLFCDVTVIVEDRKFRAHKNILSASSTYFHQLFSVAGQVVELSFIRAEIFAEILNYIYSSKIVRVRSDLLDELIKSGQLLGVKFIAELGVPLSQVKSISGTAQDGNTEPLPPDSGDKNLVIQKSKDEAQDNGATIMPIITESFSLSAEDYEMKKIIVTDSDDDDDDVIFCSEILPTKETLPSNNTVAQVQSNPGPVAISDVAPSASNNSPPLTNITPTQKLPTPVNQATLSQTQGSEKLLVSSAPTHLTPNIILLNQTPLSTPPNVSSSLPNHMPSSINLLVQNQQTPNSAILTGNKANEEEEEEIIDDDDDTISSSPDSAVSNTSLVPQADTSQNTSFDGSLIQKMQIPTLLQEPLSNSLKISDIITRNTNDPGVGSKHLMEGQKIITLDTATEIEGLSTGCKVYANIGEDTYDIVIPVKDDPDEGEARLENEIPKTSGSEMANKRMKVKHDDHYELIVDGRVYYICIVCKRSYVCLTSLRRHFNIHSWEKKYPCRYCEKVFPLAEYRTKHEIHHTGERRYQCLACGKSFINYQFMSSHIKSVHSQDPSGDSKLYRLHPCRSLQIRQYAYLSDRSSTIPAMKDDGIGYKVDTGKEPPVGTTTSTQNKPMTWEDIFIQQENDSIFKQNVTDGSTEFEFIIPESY

[4] = molecular target: T3, Myoneurin (Homo sapiens) (UniProt Q9NPC7); details: SUD4
T3 sequence (whole entry): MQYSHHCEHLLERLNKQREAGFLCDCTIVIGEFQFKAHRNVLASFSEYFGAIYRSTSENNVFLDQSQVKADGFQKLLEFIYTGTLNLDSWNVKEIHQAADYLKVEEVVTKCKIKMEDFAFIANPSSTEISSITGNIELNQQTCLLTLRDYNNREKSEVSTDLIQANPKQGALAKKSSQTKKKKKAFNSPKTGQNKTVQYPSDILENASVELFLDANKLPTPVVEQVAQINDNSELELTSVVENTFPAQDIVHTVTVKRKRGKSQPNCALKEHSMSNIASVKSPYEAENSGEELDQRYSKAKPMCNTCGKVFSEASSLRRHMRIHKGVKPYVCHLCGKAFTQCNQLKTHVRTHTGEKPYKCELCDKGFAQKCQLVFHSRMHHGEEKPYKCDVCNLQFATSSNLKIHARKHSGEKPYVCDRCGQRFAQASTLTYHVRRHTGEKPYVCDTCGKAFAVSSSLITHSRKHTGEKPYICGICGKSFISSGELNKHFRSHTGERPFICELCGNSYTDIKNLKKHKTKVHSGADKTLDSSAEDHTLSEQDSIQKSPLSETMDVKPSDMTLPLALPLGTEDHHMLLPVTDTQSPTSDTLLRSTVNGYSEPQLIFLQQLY

[5] = molecular target: T4, Zinc finger and BTB domain-containing protein 11 (Homo sapiens) (UniProt O95625); details: SUD4
T4 sequence (whole entry): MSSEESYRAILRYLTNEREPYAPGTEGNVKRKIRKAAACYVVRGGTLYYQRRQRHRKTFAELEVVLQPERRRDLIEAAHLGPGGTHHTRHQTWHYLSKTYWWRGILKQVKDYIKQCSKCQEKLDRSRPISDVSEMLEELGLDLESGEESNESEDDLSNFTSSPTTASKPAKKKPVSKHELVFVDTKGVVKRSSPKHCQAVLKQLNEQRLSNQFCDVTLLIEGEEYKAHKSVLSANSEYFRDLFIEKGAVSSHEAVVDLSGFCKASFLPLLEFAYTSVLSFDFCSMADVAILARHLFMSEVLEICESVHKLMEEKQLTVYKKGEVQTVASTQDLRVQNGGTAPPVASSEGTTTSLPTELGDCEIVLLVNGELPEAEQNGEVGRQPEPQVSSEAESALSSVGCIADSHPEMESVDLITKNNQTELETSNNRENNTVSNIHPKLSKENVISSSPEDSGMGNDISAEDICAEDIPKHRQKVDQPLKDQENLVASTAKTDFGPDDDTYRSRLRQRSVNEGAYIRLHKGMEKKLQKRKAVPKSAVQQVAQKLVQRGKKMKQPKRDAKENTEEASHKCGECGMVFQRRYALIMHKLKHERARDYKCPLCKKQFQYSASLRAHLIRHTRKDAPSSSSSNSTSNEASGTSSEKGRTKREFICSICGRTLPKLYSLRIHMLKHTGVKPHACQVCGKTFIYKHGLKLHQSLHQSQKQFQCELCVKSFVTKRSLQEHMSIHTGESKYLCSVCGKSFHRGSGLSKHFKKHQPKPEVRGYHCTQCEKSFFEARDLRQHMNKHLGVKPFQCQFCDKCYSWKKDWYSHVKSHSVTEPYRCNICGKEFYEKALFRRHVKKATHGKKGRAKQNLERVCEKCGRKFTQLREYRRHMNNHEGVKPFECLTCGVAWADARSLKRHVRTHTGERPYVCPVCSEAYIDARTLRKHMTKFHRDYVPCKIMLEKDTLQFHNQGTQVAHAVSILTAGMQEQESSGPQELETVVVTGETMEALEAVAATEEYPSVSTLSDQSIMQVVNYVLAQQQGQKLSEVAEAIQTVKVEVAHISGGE

[6] = molecular target: Zinc finger and BTB domain-containing protein 7A (Homo sapiens) (UniProt O95365); details: SUD4

Compound: C[C@@H]1CN(c2ncc(Cl)c(Nc3ccc4c(c3)n(CCC(C)(C)O)c(=O)n4C)n2)C[C@H](C)C1(F)F
- Tm [1]: 49 °C
- Normalized abundances for DMSO [2]: 964
- Normalized abundances for compound [2]: 950
- Normalized abundances for DMSO [3]: 2150
- Normalized abundances for compound [3]: 2260
- Normalized abundances for DMSO [4]: 125
- Normalized abundances for compound [4]: 110
- Normalized abundances for DMSO [5]: 2740
- Normalized abundances for compound [5]: 2800
- Normalized abundances for DMSO [6]: 911
- Normalized abundances for compound [6]: 869
